From patent US20080182822A1, “Liquid Pharmaceutical Compositions Comprising a Bisphosphonate Compound” (Besins Healthcare SA, priority 2006, published 2008)
Several values for one entry are separate records, joined by “and”; a condition that tells them apart may be missing. Equal entries are not always repeated. Where two headings read alike, the source gives them in different places.

Conditions: rat, dermal (Group 2)

NCCCC(O)(P(=O)(O)O)P(=O)(O)O [14C-alendronate]
Recovery from Treated Skin, Amount in Skin Sample (necropsy Day 4, Mean): 6.55 µg | Recovery from Treated Skin, Amount in Skin Sample (necropsy Day 4, individual animals): 6.17 µg and 5.49 µg and 6.68 µg and 8.21 µg and 6.19 µg | Recovery from Treated Skin, Amount in Skin Sample (necropsy Day 8, individual animals): 4.70 µg and 4.12 µg and 6.13 µg and 7.32 µg and 4.04 µg
